Laboratory results published in patent publication US10176292B2, “STING crystals and modulators” (MEMORIAL SLOAN-KETTERING CANCER CENTER, priority 2013, dated 2019).

Amino acid sequences for entries named in this document (tags omitted).
UniProt Q86WV6, whole entry T263A: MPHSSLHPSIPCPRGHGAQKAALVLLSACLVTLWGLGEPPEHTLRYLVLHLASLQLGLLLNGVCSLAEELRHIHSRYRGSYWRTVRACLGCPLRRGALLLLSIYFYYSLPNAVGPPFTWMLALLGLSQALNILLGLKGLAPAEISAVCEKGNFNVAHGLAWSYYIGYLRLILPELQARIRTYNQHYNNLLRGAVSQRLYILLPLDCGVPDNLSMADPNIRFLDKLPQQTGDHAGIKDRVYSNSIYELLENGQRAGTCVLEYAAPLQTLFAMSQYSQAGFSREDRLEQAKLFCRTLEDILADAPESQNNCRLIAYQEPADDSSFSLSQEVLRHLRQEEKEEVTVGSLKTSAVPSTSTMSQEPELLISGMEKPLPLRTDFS
UniProt Q86WV6, whole entry S162A: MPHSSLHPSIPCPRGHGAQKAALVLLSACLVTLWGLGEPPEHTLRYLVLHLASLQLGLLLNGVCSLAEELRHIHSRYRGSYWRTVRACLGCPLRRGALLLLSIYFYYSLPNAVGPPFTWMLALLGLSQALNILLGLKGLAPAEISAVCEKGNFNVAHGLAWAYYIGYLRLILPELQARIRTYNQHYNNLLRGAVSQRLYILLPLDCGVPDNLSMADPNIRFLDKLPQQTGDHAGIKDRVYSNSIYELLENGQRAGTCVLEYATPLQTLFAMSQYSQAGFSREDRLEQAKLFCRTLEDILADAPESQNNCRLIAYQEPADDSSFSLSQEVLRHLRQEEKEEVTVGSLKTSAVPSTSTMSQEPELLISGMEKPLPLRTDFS
UniProt Q86WV6, whole entry T267A: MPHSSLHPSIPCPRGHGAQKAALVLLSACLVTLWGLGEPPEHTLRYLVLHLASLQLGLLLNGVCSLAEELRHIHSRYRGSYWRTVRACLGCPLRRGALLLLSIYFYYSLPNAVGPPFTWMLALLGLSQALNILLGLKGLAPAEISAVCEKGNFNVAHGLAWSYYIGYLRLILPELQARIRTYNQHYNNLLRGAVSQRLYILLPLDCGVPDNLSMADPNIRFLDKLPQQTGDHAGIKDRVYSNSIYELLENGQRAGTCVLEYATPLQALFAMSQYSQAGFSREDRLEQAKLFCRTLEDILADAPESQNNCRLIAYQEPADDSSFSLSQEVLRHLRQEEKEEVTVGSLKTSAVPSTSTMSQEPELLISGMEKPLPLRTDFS

Columns and labels:
Settings in all cases: digitonin permeabilization
hSTING^H232/T263A = hSTING^H232/T263A (Homo sapiens, UniProt Q86WV6, T263A)
[1] = target: T1, hSTING S162A (hSTING^H232 and hSTING^R232 background) (Homo sapiens, UniProt Q86WV6, S162A); assay type: cell-based
T1 construct: Full-length hSTING (wt and substitutions) and mSTING (wt) constructs were used for this cellular assay; expressed in transfected cells; host or cells: HEK293T

hSTING^H232 T267A = hSTING^H232 T267A (Homo sapiens, UniProt Q86WV6, T267A)

IFN luciferase reporter response compared to 2′,5′ linkage isomers (hSTING^H232/T263A): gain in sensitivity
IFN luciferase reporter response to cGAMP isomers [1]: weaker response
IFN luciferase reporter response to cGAMP isomers (hSTING^H232 T267A): weaker response
Compound: Nc1nc2c(ncn2[C@@H]2O[C@@H]3COP(=O)(O)O[C@H]4[C@@H](O)[C@H](n5cnc6c(N)ncnc65)O[C@@H]4COP(=O)(O)O[C@H]3[C@H]2O)c(=O)[nH]1
